Experimental findings from paper PMC6678253, “The 1,3,5-Triazine Derivatives as Innovative Chemical Family of 5-HT6 Serotonin Receptor Agents with Therapeutic Perspectives for Cognitive Impairment” (International Journal of Molecular Sciences, 2019) are described below.

The conditions of the data set: 200 µM, PBS pH 7.4, 5 h, room temperature; breakpoint for permeable compounds Pe ≥ 1.5 × 10^−6 cm/s.

As to `CCn1cc(C(=O)O)c(=O)c2cc(F)c(N3CCNCC3)cc21` [NFX, norfloxacin], the “Pe (permeability coefficient) ± SD” value is 0.56 ± 0.1 10^−6 cm/s.
